Earlier results on one substance are cited in patent US12065468B2, “Heme-binding small peptide” (priority 2021, dated 2024).

For this data set the following is noted: literature; read-out: KD for heme; cited from earlier work.

Consider “serum albumin: protein loosely binding labile heme”, for which the equilibrium dissociation constant (Kd) is 40 µM.

The term Kd denotes the equilibrium constant for the complex coming apart.
